Results taken from ChEMBL document CHEMBL1136887, “Synthesis and evaluation of pharmacological profile of 1-aryl-6,7-dimethoxy-3,4-dihydroisoquinoline-2(1H)-sulfonamides” (Bioorg Med Chem, 2009).

Target: Carbonic anhydrase 9 (Homo sapiens, UniProt Q16790)
Assay: Inhibition of human recombinant carbonic anhydrase 9 catalytic domain by stopped flow CO2 hydration method

Ki: 8.44 µM
SMILES: COc1cc2c(cc1OC)C(c1ccccc1)N(S(N)(=O)=O)CC2 (stereo unspecified)
